The values that follow come from article PMC7385413 (Frontiers in Neuroscience, 2020).

The chains behind the UniProt entries cited, without tags or fusion partners. Where a name states a change or a piece, a line headed by the entry shows the natural chain unless it says otherwise.
UniProt P41145: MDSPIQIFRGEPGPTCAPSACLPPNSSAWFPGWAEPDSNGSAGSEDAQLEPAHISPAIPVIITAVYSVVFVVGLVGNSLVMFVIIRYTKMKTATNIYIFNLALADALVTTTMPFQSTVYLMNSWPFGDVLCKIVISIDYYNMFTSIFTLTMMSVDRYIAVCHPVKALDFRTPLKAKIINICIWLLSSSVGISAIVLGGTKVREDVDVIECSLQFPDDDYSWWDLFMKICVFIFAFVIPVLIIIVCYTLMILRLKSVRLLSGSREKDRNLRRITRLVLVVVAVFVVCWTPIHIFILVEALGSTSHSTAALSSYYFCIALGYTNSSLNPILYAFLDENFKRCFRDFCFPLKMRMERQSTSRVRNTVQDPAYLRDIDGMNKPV

In the assay the target is hKOPr (Homo sapiens, UniProt P41145). In words: β-arrestin2 recruitment (PathHunter) in U2OS cells expressing β-arrestin2 and hKOPr. Type of assay: cell-based. Details: host or cells: U2OS. Conditions: normalized to the vehicle and U50,488 maximum response. For orientation: Recruitment of arrestin is a read-out of receptor activation apart from second messengers.

As for `C#Cc1occc1[C@@H]1C[C@]2(C)[C@H]3C(=O)[C@@H](OC(C)=O)C[C@@H](C(=O)OC)[C@]3(C)CC[C@H]2C(=O)O1` [16-Ethynyl SalA, 16-Ethynyl Salvinorin A], the “β-arrestin2 recruitment Emax ± SEM” value came to 89.0 ± 2.2.
